Results reported in patent US12104201B2, “Engineered gyri-like mutein aptamers, and related methods” (CROSSLIFE TECHNOLOGIES INC., priority 2019, dated 2024).

Assays:
[1] = Acridine Orange fluorescence assay; conditions: 500 nM Acridine Orange
[2] = pH stability of Thiazole Orange fluorescence module
[3] = FAM fluorescence quenching assay; type: biochemical; conditions: 1 μM FAM; saturating protein
Excerpt: The fluorescence enhancing or quenching properties of Gyrl-like proteins can be used as a tool for identifying aptamers for target organic compounds. Building on Examples 1-8 we designed a protocol for identifying aptamers that bind to fluorescent dyes 5(6)-Carboxyfluorescein (FAM) and 5-Carboxytetramethylrhodamine (TAMRA) (FIG. 4). Both dyes are similar in structure and fluorescence in the green and red regions, respectively. The binding of FAM and TAMRA by Gyrl-like variant aptamers will result in enhancement or quenching of fluorescence. The invention method starts with screening our 3-selected wildtype Gyrl-like proteins to determine which can alter the fluorescence of FAM in solution (FIG. 11A).

TAMRA-DNA [4] = assay: UV fluorescence quenching of TAMRA-DNA
TAMRA-DNA [5] = assay: TAMRA-labeled DNA fluorescence quenching assay; conditions: for effect on 100 nM TAMRA-DNA fluorescence: 5 nM protein
FAM-PNA = assay: FAM-labeled oligonucleotide quenching assay; type: biochemical
Excerpt: FAM and other similar compounds are often used as labels for nucleic acids. Many biotechnology applications such as lateral flow devices and quantitative PCR use labeled oligonucleotides of this kind for sensitive signal detection. […] Accordingly, provided herein is a method to induce a fluorescence decrease from a fluorophore-labeled nucleic acid. Also provided herein are invention methods of binding and localizing proteins to the 5′ or 3′ end of nucleic acids. Internal labeled nucleic acids can also be used to localize Gyrl-like proteins to specific base positions. The invention methods also provide powerful tools using fluorophore-labeled nucleic acid that can be applied in biosensors, bioswitches, and molecular diagnostics.

[6] = Colorimetric hydrolysis of pNPP to pNP; type: biochemical; conditions: 10 μg/ml or 100 μg/ml protein; 3 hours
Excerpt: In example 9, we engineered a novel enzymatic Gyrl-like aptamer LIN2189 DUB that is capable of modifying unrelated fluorescence dyes thereby quenching their fluorescence. Using the invention methods provided herein, those of skill in the art recognize that several other enzymatic Gyrl-like proteins can be selected for numerous chemical substrates. We examined whether LIN2189 DUB and other Gyrl-like variant aptamers function to catalyze other important chemical reactions used in biotechnology. Alkaline phosphatase is an important enzyme used in biotechnology for dephosphorylating chemical and biological substrates. In simple colorimetric reactions, alkaline phosphatase is able to dephosphorylate its colorless substrate p-Nitrophenyl Phosphate (pNPP) producing the yellow product p-Nitrophenol (pNP) (FIG. 15A). Because LIN2189 WT is categorized as a hydrolase like alkaline phosphatase, we assessed whether the promiscuous GYRYZYME LIN2189 DUB could hydrolyze pNPP to produce pNP. We mixed 100 μl of pNPP substrate in samples with no protein or with 10 μg/ml or 100 μg/ml LIN2189 DUB.

E. coli cells [7] = assay: Colony formation on ampicillin/IPTG agar plates; type: cell-based; conditions: 24-hour incubation at 37° C.
FAM-DNA-BHQ1 = FAM-DNA-BHQ1 fluorescence switch assay
TAMRA-DNA-BHQ1 = TAMRA-DNA-BHQ1 fluorescence switch assay
E. coli cells [8] = assay: Ex vivo ampicillin inactivation, bacterial growth; conditions: 5 μg/ml or 500 μg/ml ampicillin; 80 μg/ml protein
CY5-oligo-BHQ1 = CY5-oligo-BHQ1 (CY5-DNA-BHQ1) fluorescence switch assay
E. coli cells [9] = assay: In vivo drug-binding aptamer screening, growth in ampicillin; conditions: up to 100 μg/ml ampicillin; 24 hrs; OD600
[10] = Colorimetric conversion of Iodonitrotetrazolium to Formazan; conditions: for color change of Iodonitrotetrazolium with NADH: 100 μM NADH, 500 μM Iodonitrotetrazolium, 5 minutes
[11] = pre-activated with complementary RNA

B1: SAV2435 V105W: SAV2435 variant aptamer, SEQ ID NO:10 (protein, listed as Escherichia coli)
chain: MEYQLQQLASLTLVGIKETYENGRQAQQHIAGFWQRCYQEGVIADLQLKNNGDLAGILGLCIPELDGKMSYMIAVTGDNSADIAKYDVITLASSKYMVFEAQGAWPKAVQQKMEEVHHYIHQYQANTVKSAPFFELYQDGDTTSEKYITEIWMPVKGLEHHHHHH
[1]
  Acridine Orange fluorescence increase: doubled the fluorescence intensity
[2]; pH 3
  decrease in Thiazole Orange fluorescence under acidic conditions: 2 fold
[2]; pH 11
  stability of Thiazole Orange fluorescence under basic conditions: slightly more stable than acidic

B2: LIN2189 E185L: LIN2189 variant aptamer, SEQ ID NO:30 (protein, listed as Escherichia coli)
chain: MGSHHHHHHTEKKIDFKKEEKKFYAPKRKPERIFVPEMNFLMVDGKGDPDGEEYQKAVQSLYAIAYTIKMSKMGETRLDGYSDFVVPPLEGFWWSEGKFDLKDRDAWLWTSILRQPDFVTEEVLEWAKEVARKKKPDVDTSRVKLVRFEEGECVQMMHVGPFSEEVHTVAEMHQFMETEGLRNDTGAIRKHHLIYLSDPRKANPEKMKTILRLPVS
[3]
  decrease in FAM fluorescence: no changes in fluorescence quenching compared to LIN2189 WT
TAMRA-DNA [4]; 1 nM protein
  quenching of UV fluorescence of 100 nM TAMRA: ineffective
TAMRA-DNA [4]; 10 nM protein
  quenching of UV fluorescence of 100 nM TAMRA: ineffective
TAMRA-DNA [4]; 100 nM protein
  quenching of UV fluorescence of 100 nM TAMRA: shut off/quench
TAMRA-DNA [5]
  effect on 100 nM TAMRA-DNA fluorescence: no effects on TAMRA fluorescence

B3: LIN2189 DUB: LIN2189 double mutant (E157A, E185L), SEQ ID NO:32, enzymatic GYRYZYME (protein, listed as Escherichia coli)
chain: B2 chain with E165A
[3]
  decrease in FAM fluorescence: 40 fold
FAM-PNA
  decrease in FAM-PNA fluorescence: 31 fold
[6]
  conversion of pNPP to pNP (colorimetric): strong colorimetric changes
E. coli cells [7]
  colonies on ampicillin/IPTG plates: bacterial growth
TAMRA-DNA [4]; 1 nM protein
  quenching of UV fluorescence of 100 nM TAMRA: approximately 70%
TAMRA-DNA [4]; 10 nM protein
  quenching of UV fluorescence of 100 nM TAMRA: efficiently quenched
TAMRA-DNA [4]; 100 nM protein
  quenching of UV fluorescence of 100 nM TAMRA: efficiently quenched
FAM-DNA-BHQ1; pre-activated with CTR107 TRIP
  fluorescence reduction of activated FAM-DNA-BHQ1: no effect
FAM-DNA-BHQ1; [11]
  fluorescence reduction of activated FAM-DNA-BHQ1: 47 fold
TAMRA-DNA-BHQ1; pre-activated with CTR107 TRIP
  fluorescence decrease of activated TAMRA-DNA-BHQ1: no effect
TAMRA-DNA-BHQ1; [11]
  fluorescence decrease of activated TAMRA-DNA-BHQ1: 13 fold
TAMRA-DNA [5]; 1 nM and 500 μM protein, up to 5 minutes
  reduction of 100 nM TAMRA fluorescence: 2 fold
TAMRA-DNA [5]
  effect on 100 nM TAMRA-DNA fluorescence: efficiently shut off
TAMRA-DNA [5]; 5 nM to 1 μM protein, 1 minute incubation
  quenching of 100 nM TAMRA fluorescence: completely shut off
TAMRA-DNA [5]; 1 μM TAMRA-DNA, red channel
  quenching of TAMRA-DNA fluorescence: 22 fold
E. coli cells [8]
  bacterial growth in ampicillin pre-incubated with protein: induce resistance
CY5-oligo-BHQ1; pre-activated with CTR107 TRIP
  fluorescence reduction of activated CY5-DNA-BHQ1: 2 fold
CY5-oligo-BHQ1; [11]
  fluorescence reduction of activated CY5-DNA-BHQ1: 39 fold
E. coli cells [9]
  ampicillin resistance of E. coli expressing the protein: highest resistance

B4: CTR107 TRIP: CTR107 triple mutant (E36R, H40Y, Y106W), SEQ ID NO:24 (protein, listed as Escherichia coli)
chain: MDFECQFVCELKELAPVPALLIRTQTTMSELGSLFRAGYYDILQLLAGQGKSPSGPPFARYFGMSAGTFEVEFGFPVEGGVEGSGRVVTGLTPSGKAASSLYIGPWGEIEAVYDALMKWVDDNGFDLSGEAYEIYLDNPAETAPDQLRTRVSLMLHESLEHHHHHH
FAM-DNA-BHQ1
  FAM-DNA-BHQ1 activation compared to complementary RNA: comparable
  activation of FAM-DNA-BHQ1 bioswitch: 56 fold
TAMRA-DNA-BHQ1
  TAMRA-DNA-BHQ1 activation compared to complementary RNA: comparable
  activation of TAMRA-DNA-BHQ1 bioswitch: 25 fold
CY5-oligo-BHQ1
  CY5-DNA-BHQ1 activation, weaker than complementary RNA: 50%
CY5-oligo-BHQ1; Example 12
  activation of CY5-DNA-BHQ1 bioswitch: 10 fold
[10]
  color change of Iodonitrotetrazolium with NADH: much stronger red colorimetric change
[10]; 2 hr
  color change of Iodonitrotetrazolium with cofactor: dark burgundy color change

B5: CTR107 QUAD: CTR107 quadruple mutant (E36R, H40Y, Y106W, E133Q), SEQ ID NO:26 (protein, listed as Escherichia coli)
chain: B4 chain with E133Q
[10]
  color change of Iodonitrotetrazolium with NADH: faint red signal

Positions count from the first letter of the chain named. In names and notes the source's numbering stands.
